Experiments:
human NTCP [1] = target: T1, human NTCP (Homo sapiens, UniProt Q14973); experiment: Screening fluorescent competitive Myrcludex B-FITC binding assay (96-well, 10 µM drug); conditions: U2OS-HA-hNTCP cells
human NTCP [2] = target: T1, human NTCP; experiment: Screening taurocholate uptake assay (96-well, [14C]taurocholate, 10 µM drug); conditions: U2OS-HA-hNTCP cells

Sequences of proteins named here, by UniProt entry; tags and fusion partners are left off.
UniProt Q14973, whole entry: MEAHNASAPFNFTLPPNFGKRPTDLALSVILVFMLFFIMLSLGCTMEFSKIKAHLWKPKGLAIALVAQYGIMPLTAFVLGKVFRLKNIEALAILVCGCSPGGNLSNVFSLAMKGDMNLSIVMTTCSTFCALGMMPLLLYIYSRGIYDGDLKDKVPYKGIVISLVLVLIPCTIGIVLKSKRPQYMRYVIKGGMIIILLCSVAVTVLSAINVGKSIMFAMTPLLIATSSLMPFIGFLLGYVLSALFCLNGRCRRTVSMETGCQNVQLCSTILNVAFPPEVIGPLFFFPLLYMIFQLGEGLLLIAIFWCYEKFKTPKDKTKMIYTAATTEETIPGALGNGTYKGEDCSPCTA

## COc1cc(-c2ccc(/N=N/c3ccc4c(S(=O)(=O)O)cc(S(=O)(=O)O)c(N)c4c3O)c(OC)c2)ccc1/N=N/c1ccc2c(S(=O)(=O)O)cc(S(=O)(=O)O)c(N)c2c1O
Human NTCP [1]
  %NTCP binding: -1.33%
Human NTCP [2]
  %NTCP activity: 8.529%
